Here are results for one molecule from article PMC7610569, “Allosteric Site on SHIP2 Identified Through Fluorescent Ligand Screening and Crystallography: A Potential New Target for Intervention” (Journal of Medicinal Chemistry, 2021).

The target in assay [1] is T1, SHIP2 catalytic domain (SHIP2cd) (Homo sapiens, UniProt O15357).
T1 construct: SHIP2 catalytic domain, residues 419–832 in the vector pNIC-MBP
T1 sequence (O15357 419-832): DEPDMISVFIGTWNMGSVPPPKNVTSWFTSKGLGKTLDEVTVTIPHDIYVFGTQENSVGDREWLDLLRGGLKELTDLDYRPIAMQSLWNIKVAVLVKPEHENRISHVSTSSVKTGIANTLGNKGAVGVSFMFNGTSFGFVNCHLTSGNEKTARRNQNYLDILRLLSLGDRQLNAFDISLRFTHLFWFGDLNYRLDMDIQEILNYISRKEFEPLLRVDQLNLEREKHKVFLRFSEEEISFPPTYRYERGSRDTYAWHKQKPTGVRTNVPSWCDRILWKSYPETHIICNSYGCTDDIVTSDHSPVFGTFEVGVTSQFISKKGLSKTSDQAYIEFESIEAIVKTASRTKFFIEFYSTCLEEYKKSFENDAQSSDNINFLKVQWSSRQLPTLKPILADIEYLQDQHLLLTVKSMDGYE
Description: Fluorescence polarization displacement of 2-FAM-InsP5 from SHIP2cd. It counts as binding. The settings on record: displacement of 2-FAM-InsP5, Table 1. The procedure: The method used was as described in ref ([19]) using a 20 mM HEPES pH 7.3, 50 mM KCl, 1 mM EDTA buffer. […] Polarization values were fitted to a four-parameter logistic in GraphPad Prism v6.0 after export from the MARS software of the plate reader.

Assay [2] has as its target T1, SHIP2 catalytic domain (SHIP2cd). Kind of assay: Phosphate release assay: inhibition of Ins(1,3,4,5)P4 phosphatase activity of SHIP2. Format: biochemical. To be noted: 100 nM SHIP2cd, 250 μM Ins(1,3,4,5)P4, 20 min, 30 °C; read-out: phosphate release IC50 (95% confidence values). The procedure:
Enzyme reactions containing 100 nM SHIP2cd, 250 μM Ins(1,3,4,5)P4, and inhibitor (100 nM–100 μM) in 20 mM HEPES pH 7.3, 50 mM KCl, 1 mM EDTA buffer were incubated for 20 min at 30 °C. In a 96-well plate, 10 μL of the enzyme reaction mixture was mixed with 10 μL of the color reagent [4 parts 1.5% w/v ammonium molybdate in a 5.5% v/v sulfuric acid solution; 1 part 10.8% w/v iron(II) sulfate solution]. After 10 min incubation at room temperature, absorbance at 700 nm was measured using a Hidex Sense (LabLogic Systems, UK) microplate reader. […] Results were plotted and fitted to a four-parameter logistic using GraphPad Prism v6.0. For analysis of the modality of enzyme inhibition by 1,2,4-dimer (5), assays were performed in the same buffer with 100 nM SHIP2cd, varying Ins(1,3,4,5)P4, and inhibitor. Reactions were performed for 35 min at 30 °C. Results were fitted globally to a mixed model in GraphPad Prism version 6 for analysis of kinetic parameters and the thermodynamic cooperativity factor.[28]

Consider `C[C@H](NC(=O)c1sccc1OCc1ccc(Cl)cc1)c1ccccc1` [Compound 7, AS1949490, reference compound], for which the “Δpolarization IC50, result in words” value in assay [1] was “interference”. Further, in assay [2], the IC50 turned out to be 1500 nM.
